Amino acid sequences for entries named in this document (tags omitted).
UniProt P09874, whole entry: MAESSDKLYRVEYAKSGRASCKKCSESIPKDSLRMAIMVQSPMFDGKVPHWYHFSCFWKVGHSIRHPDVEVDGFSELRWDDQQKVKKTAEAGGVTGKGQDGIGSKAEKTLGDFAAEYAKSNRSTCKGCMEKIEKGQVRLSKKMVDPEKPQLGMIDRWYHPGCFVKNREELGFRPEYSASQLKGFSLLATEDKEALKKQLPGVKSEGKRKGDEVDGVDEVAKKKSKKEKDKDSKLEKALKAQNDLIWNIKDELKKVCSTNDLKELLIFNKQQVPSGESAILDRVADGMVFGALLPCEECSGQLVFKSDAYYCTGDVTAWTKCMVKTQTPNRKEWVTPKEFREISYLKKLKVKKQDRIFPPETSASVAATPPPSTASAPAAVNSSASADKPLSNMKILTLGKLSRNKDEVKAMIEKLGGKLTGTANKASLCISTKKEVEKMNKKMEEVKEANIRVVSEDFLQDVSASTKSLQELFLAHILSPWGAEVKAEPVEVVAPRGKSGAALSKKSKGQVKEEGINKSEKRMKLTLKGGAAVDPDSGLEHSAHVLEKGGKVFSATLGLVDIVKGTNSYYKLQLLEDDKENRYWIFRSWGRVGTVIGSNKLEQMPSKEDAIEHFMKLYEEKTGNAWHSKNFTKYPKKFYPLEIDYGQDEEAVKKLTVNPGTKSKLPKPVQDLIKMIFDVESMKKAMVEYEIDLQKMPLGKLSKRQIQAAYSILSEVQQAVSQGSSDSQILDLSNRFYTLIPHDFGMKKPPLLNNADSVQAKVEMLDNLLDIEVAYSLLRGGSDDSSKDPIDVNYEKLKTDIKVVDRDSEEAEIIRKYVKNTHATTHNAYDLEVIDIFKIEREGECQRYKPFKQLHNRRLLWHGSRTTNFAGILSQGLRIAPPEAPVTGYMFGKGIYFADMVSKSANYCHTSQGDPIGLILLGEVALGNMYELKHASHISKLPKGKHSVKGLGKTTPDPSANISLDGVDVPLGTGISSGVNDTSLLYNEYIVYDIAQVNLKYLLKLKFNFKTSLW

In patent US8173682B2, “Substituted pyridones as inhibitors of poly(ADP-ribose) polymerase (PARP)” (Aventis Pharmaceuticals Inc., priority 2004, dated 2012):

Molecular target: T1, recombinant human PARP (PARP1) (Homo sapiens, UniProt P09874)
T1 construct: Full length human PARP (PARP1) is assembled from PCR fragments; His6 tag with TEV site, from the pFastBac-HTb vector (own knowledge of the vector); made in house; host or cells: insect cells, baculovirus (Bac-to-Bac, Gibco-BRL)
Assay: PARP enzyme assay, Method A (radioactivity or 'ELISA' enzyme assay with partially purified enzyme)
Type: biochemical
Details: NAD 200 μM, read-out: IC50 of reference compounds
Description: Two different methods are employed in determining the activity of the compounds of this invention in inhibiting the activity of PARP enzyme, designated as Method A and Method B respectively as set forth below.
Method A: Cloning and Expression, and Partial Purification of Recombinant Human PARP:
Full length human PARP (PARP1) is assembled from PCR fragments of a clone from a human brain cDNA library and two Incyte clones. The PARP gene (3046 bp) is sub-cloned into pFastBac-HTb vector to give PARP-pFastBac-HTb and the sequence of this clone is verified. PARP-pFastBac-HTb is expressed to obtain protein using the Bac-to-Bac expression protocol from Gibco-BRL. The recombinant virus generated is used to scale up the material for purification.
Cell pellets from cell broth of cells expressing PARP are treated with a cocktail of protease inhibitors and lysed by 4 freeze-thaw cycles. The material is suspended in 10 mM HEPES/0.1M NaCl/pH 7.2, stirred, and then centrifuged. […]
Radioactivity Enzyme Assay:
Incorporation of radioactivity from labeled NAD into acid-precipitated protein is measured. […] After washing with TCA and ethanol, the filter is dried and counted for tritium CPM after addition of scintillation fluid.
Incorporation of biotin-NAD into histone coated on plate is measured. […] The TMB reaction is quenched with 2M sulfuric acid and the absorbance at 450 nm is read.

IC50: 11 µM
Substance: DPQ [reference compound]
